Assay outcomes deposited in PubChem BioAssay by several laboratories.
Arrestin-AP2 inh – blocks beta-arrestin peptide binding to AP2 adaptin; FITC-arrestin peptide / GST-AP2 beads, flow cytometry; AP2 beta2 appendage carries R879A mutation; hit rate 0.31% among 340,000; inhibition, % at 10 µM;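 active = inhibition above a set limit, near 3 SD of compounds lacking own fluorescence, cut at about 54% in these data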;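 also: plate controls were DMSO wells for no effect and 5 µM unlabelled arrestin peptide for full effect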
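system = GST-tagged AP2 beta2-adaptin appendage (R879A) on 4 µm glutathione beads | reagent = FITC-labelled arrestin peptide probe, 50 nM final | schedule = compound with beads 12 min RT, then probe 1 h RT | signal = HyperCyt-sampled flow cytometry, FL1 channel, ex 488/em 535 nm | read-out = percent response from loss of bead-bound FITC fluorescence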
DSG3 Ab inh – human desmoglein-3 autoantibody binding inhibition; hit rate 0.48% among 310,000; binding (percent of control), % at 10 µM; P32926; DSG3-coupled beads, scFv-anti-DSG3-GFP binding, flow cytometry; stronger effect = lower value; AID 588358;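 active = binding more than 3 SD below its plate's average and above zero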;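 also: hits lower antibody fragment binding to DSG3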
Yeast UUG start – modulators of start codon recognition fidelity in yeast; S. cerevisiae UUG-firefly luciferase reporter, luminescence/redox ratio; activity score, % at 18.7 µM; hit rate 0.13% among 350,000; AID 602363;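 active = replicate mean at a twofold rise or more, about +100% in these data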;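 note: firefly luciferase made from a UUG start codon reports start codon fidelity; reporter light over untreated wells divided by growth signal over untreated wells; some hits fall short of that in this replicate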
Rce1 inhib – blocks yeast Ras-converting enzyme; Q03530; yeast membranes, quenched prenylated peptide cleavage fluorescence; AID 2563; hit rate 0.27% among 290,000; calls only;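 active = fall in fluorescence gain of 50% or more versus controls, with final raw signal at or below 3038400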;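 also: plate controls were neutral control wells for no effect and wells lacking membranes for full effect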
TbMetRS inhib – Trypanosoma brucei MetRS inhibition; purified T. brucei MetRS, ATP depletion, Kinase-Glo luminescence; hit rate 0.4% among 360,000; inhibition, % at 11.9 µM; AID 624268;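 active = inhibition above a per-plate cutoff of the control wells' mean inhibition plus 3 SD, cut at about 5.5% in these data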;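 also: 0% = DMSO wells median and 100% = median of wells with control inhibitor compound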
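Dosing: 11.9 µM single point; system: parasite MetRS enzyme; technique: luminescence of leftover ATP; times: 15 min enzyme-compound preincubation, 2 h reaction, 10 min detection, 25 °C; replicates: each compound tested once; read-out basis: percent inhibition relative to median high and low control wells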
* hit, by the source's call; i = inactive; nt = no result given; + = active, no number. Rows were chosen to be rich in hits. Some 1.2% of all compounds tested hit in one or more screens of this group.

SMILES | Arrestin-AP2 inh | DSG3 Ab inh | Yeast UUG start | Rce1 inhib | TbMetRS inhib
NS(=O)(=O)c1ccc(N/C=C/C(=O)c2ccc(Br)cc2)cc1 | 7 | 93* | -12 | i | 0
NS(=O)(=O)c1ccc(N/C=C\C(=O)c2ccc(F)cc2)cc1 | 25 | 71 | nt | i | -1
CCC(=O)Nc1ccc2c(c1)C(=O)N(C)C[C@H](OC)[C@H](C)CN(C(=O)COC)[C@H](C)CO2 | nt | nt | -3 | nt | nt
Nc1cc(-c2ccc(Cl)cc2)nn1S(=O)(=O)c1ccccc1 | 6 | 25* | -1 | i | 0
CC(C)c1cn(CC[C@H]2CC[C@H](NS(=O)(=O)c3ccc(F)cc3)[C@@H](CO)O2)nn1 | nt | nt | -5 | nt | nt
FC(F)(F)c1cc(Oc2ccccc2)ncc1-c1nnc(-c2ccccc2Cl)o1 | -1 | nt | -11 | + | 0
CC(C)CC#Cc1cnc2c(c1)C(=O)N([C@@H](C)CO)C[C@H](C)[C@@H](CN(C)Cc1ccccc1)O2 | nt | nt | 10 | nt | nt
COc1cc2ccccc2cc1-c1nnc(COc2ccccc2)o1 | 5 | 90* | -9 | i | 0
O=C(c1ccc(F)cc1)N1CCCCN2[C@H](C1)[C@@H](c1ccc(-c3ccc(F)cc3)cc1)[C@@H]2CO | nt | nt | -6 | nt | nt
O=C(OCc1nc2ccccc2[nH]1)C12CC3CC(CC(C3)C1)C2 | 28 | 100 | -16 | i | 47*
CC1CCCC(NC(=O)COC(=O)CCC2CCCC2)C1C (stereo not given) | 0 | 45* | -17 | i | 0
CCCC(=O)Nc1ccc2c(c1)C(=O)N(C)[C@@H]1CC[C@H](CC(=O)NC3CCCC3)O[C@H]1CO2 | nt | nt | 4 | nt | nt
O=C(CN1CCC(n2nnc3cc(C(F)(F)F)ccc32)CC1)N1CCc2ccccc21 | 32 | 82* | -32 | i | -1
Cc1cc(C)c(NC(=O)CSc2nc3ncc(Br)cc3[nH]2)c(C)c1 | 33 | 101 | -22 | i | 1
O=C(CSc1nc2ncc(Br)cc2[nH]1)Nc1ccc2c(c1)OCO2 | 0 | 117 | -8 | i | 67*
COc1ccccc1C(=O)Nc1ccc2c(c1)C(=O)N(C)C[C@@H](OC)[C@H](C)CN(CC1CC1)[C@H](C)CO2 | nt | nt | -11 | nt | nt
Cc1ccc(C(C)C)c(OCC(=O)Nc2ccc(N3CCN(S(C)(=O)=O)CC3)cc2)c1 | 0 | 53* | -29 | nt | 0
Cc1ccc(OCC(=O)Nc2ccc(N3CCN(S(C)(=O)=O)CC3)cc2)c(C)c1 | 5 | 112 | -24 | i | 0
Cc1ccc(S(=O)(=O)N(C)C[C@@H]2Oc3ccc(NC(=O)NC(C)C)cc3C(=O)N([C@H](C)CO)C[C@@H]2C)cc1 | nt | nt | 0 | nt | nt
NS(=O)(=O)c1ccc(-c2ccc(/C=C3\SC(=S)N(C4CCS(=O)(=O)C4)C3=O)o2)cc1 (stereo not given) | 17 | 77* | nt | i | 0
CCS(=O)(=O)Nc1ccc2c(c1)C(=O)N(C)[C@@H]1CC[C@@H](CC(=O)OC)O[C@H]1CO2 | nt | nt | -9 | nt | nt
CCCCN(C(=O)/C=C/c1ccccc1)C1CCS(=O)(=O)C1 (stereo not given) | -2 | 74* | nt | i | 0
CCCCN(C(=O)Oc1ccccc1)C1CCS(=O)(=O)C1 (stereo not given) | 15 | nt | nt | i | 0
C[C@@H]1CN([C@H](C)CO)C(=O)c2cccc(NC(=O)c3ccc(-c4nccs4)cc3)c2O[C@@H]1CN(C)Cc1ccc(C(=O)O)cc1 | nt | nt | 1 | nt | nt
CNC(=O)C[C@H]1CC[C@@H]2[C@H](COc3ccc(NC(=O)c4ccccc4Cl)cc3C(=O)N2C)O1 | nt | nt | -3 | nt | nt

6 of the compounds above, as tab-separated lines:
canonical_smiles	Arrestin-AP2 inh	DSG3 Ab inh	Yeast UUG start	Rce1 inhib	TbMetRS inhib
O=C(CN1CCC(n2nnc3cc(C(F)(F)F)ccc32)CC1)N1CCc2ccccc21	32	82*	-32	i	-1
O=C(OCc1nc2ccccc2[nH]1)C12CC3CC(CC(C3)C1)C2	28	100	-16	i	47*
CC(C)c1cn(CC[C@H]2CC[C@H](NS(=O)(=O)c3ccc(F)cc3)[C@@H](CO)O2)nn1	nt	nt	-5	nt	nt
Cc1ccc(C(C)C)c(OCC(=O)Nc2ccc(N3CCN(S(C)(=O)=O)CC3)cc2)c1	0	53*	-29	nt	0
CCCCN(C(=O)/C=C/c1ccccc1)C1CCS(=O)(=O)C1 (stereo not given)	-2	74*	nt	i	0
Cc1ccc(OCC(=O)Nc2ccc(N3CCN(S(C)(=O)=O)CC3)cc2)c(C)c1	5	112	-24	i	0

Next section:
SMILES | Arrestin-AP2 inh | DSG3 Ab inh | Yeast UUG start | Rce1 inhib | TbMetRS inhib
COc1cc2c(cc1OC)C(C)N(C(=O)CCNC(=O)c1ccccc1)CC2 (stereo not given) | 50 | 93 | -26 | + | -1
COc1cc2c(cc1OC)C(C)N(C(=O)[C@@H](NC(=O)c1ccccc1)C(C)C)CC2 (stereo not given in full) | 21 | 98 | 0 | i | 0
COc1ccc(C(=O)CSc2ncnc3nc[nH]c23)cc1 | 13 | 88* | -30 | i | 0
Cc1ccc(C)c(NC(=O)CSc2ncnc3nc[nH]c23)c1 | -4 | nt | -7 | i | 0
COc1ccc(CNC(=O)CSc2ncnc3nc[nH]c23)cc1 | -2 | 99 | -18 | i | 0
Cc1cccc(NC(=O)CSc2ncnc3nc[nH]c23)c1C | -2 | 37* | -14 | i | -1
CC(C)C#Cc1cnc2c(c1)C(=O)N([C@H](C)CO)C[C@@H](C)[C@@H](CN(C)C(=O)CCN1CCCCC1)O2 | nt | nt | 20 | nt | nt
COc1cc(-c2cc(-c3ccc(O)cc3)nc(N)c2C#N)ccc1O | 35 | 100 | nt | + | -1
O=C(CCN1C(=O)/C(=C/c2ccccc2)SC1=S)NC1CCS(=O)(=O)C1 (stereo not given) | -7 | 99 | -8 | i | 0
O=C(CN1C(=O)/C(=C/c2ccco2)SC1=S)NC1CCS(=O)(=O)C1 (stereo not given) | 6 | -6.6* | 9 | i | 4
CC1(c2ccc(OCC#N)cc2)C=C(c2ccc(OCC#N)cc2)n2nc(C(F)(F)F)nc2N1 (stereo not given) | -3 | 100 | nt | + | 0
CCC(CC)c1nnc(NC(=O)c2c(C)nn(Cc3ccccc3Cl)c2C)s1 | 2 | 53* | nt | i | -2
Cc1cccc(N2CCc3c2nc2ccc(Br)cc2c3N)c1 | 5 | 100 | 9 | + | 0
CNC[C@@H]1Oc2cc(-c3ccccc3F)ccc2S(=O)(=O)N([C@H](C)CO)C[C@H]1C | nt | nt | 35 | nt | nt
COc1ccc(OC)c(Nc2ncnc3sccc23)c1 | -6 | 85 | -3 | i | -1
COc1cc(CN(C)c2ncnc3sccc23)ccc1OC(F)F | 4 | 35* | -14 | i | -1
CC(Cc1cccs1)NC(=O)Nc1ccc([N+](=O)[O-])cc1 (stereo not given) | 15 | 105 | nt | + | 0
Cc1ccc2c(cnn2C(=O)CCCC(=O)NCc2ccc(F)cc2)c1 | 21 | 104 | -17 | i | 0
CCc1ccc(CNC(=O)CCC(=O)n2ncc3cc(C)ccc32)cc1 | -7 | 77* | -16 | i | 0
CC(=O)N(C)C[C@@H]1Oc2ncc(-c3cncnc3)cc2C(=O)N([C@H](C)CO)C[C@@H]1C | nt | nt | -16 | nt | nt
O=C(CSc1ccc(Cl)cc1)Nc1cccc(-c2nc3ccccc3[nH]2)c1 | -3 | 66* | nt | i | 0
O=C(N/N=C\c1ccc(-c2ccccc2[N+](=O)[O-])o1)C1COc2ccccc2O1 (stereo not given) | -17 | 105 | -14 | i | 0
O=C(N/N=C\c1ccc(-c2ccccc2[N+](=O)[O-])o1)C1COc2cc3ccccc3cc2O1 (stereo not given) | 8 | nt | -10 | i | 10*
O=S(=O)(c1ccc(-c2csc(Nc3ccc(F)cc3)n2)cc1)N1CCCC1 | 42 | 98 | -22 | + | -1
Cc1cc(C)cc(Nc2nc(-c3ccc(S(=O)(=O)N4CCCC4)cc3)cs2)c1 | 9 | 99 | nt | + | -1
